According to US6815425B1, “Pharmaceutical composition containing pGLU-GLU-PRO-NH2 and method for treating diseases and injuries to the brain, spinal cord and retina using same” (The United States of America as represented by the …, priority 1999, dated 2004):

Test system: rabbit retinal neurons

Substance: pGLU-GLU-PRO-NH2 [EEP]
- survival of neurons (viability relative to controls): 58.7 t: 7.9%
